In publication PMC10964233, “Antigen-Mimic Nanoparticles in Ultrasensitive on-Chip Integrated Anti-p53 Antibody Quantification” (ACS Sensors, 2024):

Key:
[1] = tested on: Con A-modified electrode interfaces; assay: Antibody selectivity of Con A-modified electrode interfaces; assay type: binding; conditions: 1.0 mg/mL nonspecific protein; Figure S7
[2] = tested on: DO-1 peptide/HRP-IONPs with Con A-modified SPCEs; assay: Assay specificity (SWV responses of interferents); conditions: 1.0 mg/mL, equivalent MAC immunoisolation conditions; Figure S17
Method: Following a 10 min incubation of the antibody–IONP immunocomplexes on Con A-modified SPCEs, and subsequent washing with PBS, 100 μL of the high-sensitivity TMB substrate was added and left to react for 5 min. Square-wave voltammetry (SWV) scans were then conducted from +1.0 to −0.5 V (vs Ag/AgCl), at an amplitude of 20 mV, a potential step of 2 mV, and a frequency of 50 Hz. Specificity tests were carried out with 1.0 mg/mL human serum albumin (HSA), bovine serum albumin (BSA), 1.0% human serum, and 10 μg/mL IgG prepared in a PBS buffer. Recovery assays were conducted using DO-1 antibodies spiked into 1.0 mg/mL BSA or 1.0% human serum (human male AB plasma, Sigma, UK).
Assay specificity was assessed against 1.0 mg/mL BSA, HSA, 1.0% human serum, and 10.0 μg/mL immunoglobulin G (antibody control), with negligible voltammetric responses (<10% of that presented by 50 ng/mL DO-1 antibody) obtained under equivalent MAC immunoisolation conditions (Figure S17). To evaluate the performance in spiked samples, recovery tests were performed in 1.0 mg/mL BSA and diluted human serum. These tests yielded an average recovery of 96.7 ± 3.2% in BSA (Figure S18,n = 3) and 100.7 ± 5.0% in human serum (Figure 6, n = 5), indicative of robustly selective target recruitment.

human serum albumin [HSA] was tested, and the “Response at Con A interface relative to DO-1 antibody” value [1] was < 10% and the “Voltammetric response relative to 50 ng/mL DO-1 antibody” value [2] was < 10%.
